Values of other authors in publication PMC6062831 (ACS Central Science, 2018).

Conditions: calculated by Maier et al.; cited from earlier work

## Clc1ccc2c(c1)C(N1CCNCC1)=Nc1ccccc1O2 [amoxapine]
  calculated colon concentration: 138 µM
  calculated small intestinal concentration: 106 µM
